Laboratory results: patent publication US8932558B2, “Multi-subunit biological complexes for treatment of plaque-associated diseases” (Plaxgen Inc, priority 2007, dated 2015)

Test system: CP aggregates
Assay: Binding of proteins with calcium containing aggregates
Conditions: 2 μg protein, 37° C., 1 hr
Method: The Proteins used for binding with the aggregates are diluted first in the PBS to make 1 mg/ml concentration and then stored at −20° C. as 50 μl aliquots. These samples are then thawed on ice and centrifuged (10,000 rpm, 10 min, 4° C.) to remove any precipitation and the supernatant containing only the soluble proteins are used for binding studies. To start with, for identification of proteins binding with calcium containing aggregates, a number of proteins are screened individually with the aggregates. Binding experiment is performed in 100 μl reaction (50 μl PBS buffer and 50 μl of individual aggregates) containing 2 μg of protein and the mixtures are incubated at 37° C. for 1 hr. For control experiments, protein (2 μg) is mixed in 100 μl PBS without aggregates. After the binding, the mixture is centrifuged (2500 rpm, 2 min, 20° C.) and the pellet is washed four times with 200 μl PBST (Tween 20, 0.05%). After each wash the supernatant is discarded and the complexes are transferred to a new microfuge tube to avoid any carry-over of the proteins. […] Finally, the solublized samples are used for protein quantitation using protein estimation kit (Pierce, Ill.) and the data are used in the Microsoft Excel program to generate Graph 1 (FIG. 4). […]

With HSA: human serum albumin the “Binding with the CP aggregates” value was “detectable binding”.
